BindingDB's records for doi:10.1021/bi400413c (Stony Brook University, 2013)

Target: T1, Enoyl-[acyl-carrier-protein] reductase [NADPH] FabI (Staphylococcus aureus (strain MRSA252), UniProt Q6GI75)
T1 sequence (Q6GI75 whole entry): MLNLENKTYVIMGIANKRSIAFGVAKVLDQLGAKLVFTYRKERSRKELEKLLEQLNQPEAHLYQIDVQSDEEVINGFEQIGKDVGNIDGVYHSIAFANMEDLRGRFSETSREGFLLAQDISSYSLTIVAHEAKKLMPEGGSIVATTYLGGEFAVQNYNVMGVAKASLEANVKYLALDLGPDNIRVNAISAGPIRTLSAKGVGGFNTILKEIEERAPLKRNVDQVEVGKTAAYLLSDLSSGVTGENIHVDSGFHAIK
Assay: Thermal Shift Assay
Conditions: pH 7.5
Method: ThermoFluor experiments were carried out in 96-well plates (Concord) using the CFX96 RealTime PCR Detection system and C1000 Thermal Cycler (BioRad).

CCc1ccc(Oc2ccccc2)c(O)c1 [PT01]
Ki: 0.09 nM
